Experimental findings from patent US20230219906A1, “MACROCYCLIC-2-AMINO-3-FLUORO-BUT-3-ENAMIDES AS INHIBITORS OF MCL-1” (Janssen Pharmaceutica NV, priority 2020, published 2023) are described below.

Sequences of proteins named here, by UniProt entry; tags and fusion partners are left off.
UniProt Q07820, whole entry: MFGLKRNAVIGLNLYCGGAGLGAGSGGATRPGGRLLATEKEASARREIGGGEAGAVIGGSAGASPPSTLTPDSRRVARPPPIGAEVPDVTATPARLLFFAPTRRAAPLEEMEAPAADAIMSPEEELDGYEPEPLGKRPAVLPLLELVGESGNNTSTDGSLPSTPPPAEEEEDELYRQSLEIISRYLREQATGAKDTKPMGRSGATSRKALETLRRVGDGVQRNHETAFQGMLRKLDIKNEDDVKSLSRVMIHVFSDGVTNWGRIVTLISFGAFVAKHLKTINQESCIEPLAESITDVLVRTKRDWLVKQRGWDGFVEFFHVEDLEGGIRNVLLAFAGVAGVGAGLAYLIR

Test [1] has as its target Myeloid Cell Leukemia 1(Mcl-1) (Homo sapiens, UniProt Q07820). The experiment in a line: Terbium labeled Mcl-1 HTRF binding assay with Cy5-labeled BIM BH3 peptide. The settings on record: read-out: Tb-MCL1 Ki; displacement of Cy5 Bim BH3 peptide; Ki=IC50/(1+[L]/Kd), [L]=8 nM, Kd=10 nM; 60 minutes at room temperature. The method, then:
Terbium labeled Myeloid Cell Leukemia 1(Mcl-1) homogeneous time-resolved fluorescence (HTRF) binding assay utilizing the BIM BH3 peptide (H2N—(C/Cy5Mal) WIAQELRRIGDEFN-OH) as the binding partner for Mcl-1.
This assay evaluated inhibition of the BH3 domain: Mcl-1 interaction by measuring the displacement of Cy5-labeled BIM BH3 peptide (H2N—(C/Cy5Mal) WIAQELRRIGDEFN-OH) in the HTRF assay format.
The following assay and stock buffers were prepared for use in the assay: (a) Stock buffer: 10 mM Tris-HCl, pH=7.5+150 mM NaCl, filtered, sterilized, and stored at 4° C.; and (b) 1X assay buffer, where the following ingredients were added fresh to stock buffer: 2 mM dithiothreitol (DTT), 0.0025% Tween-20, 0.1 mg/mL bovine serum albumin (BSA). […]
The TR-FRET signal was read on an BMG PHERAStar FSX MicroPlate Reader at room temperature using the HTRF optic module (HTRF: excitation: 337 nm, light source: laser, emission A: 665 nm, emission B: 620 nm, integration start: 60 μs, integration time: […]).
The BMG PHERAStar FSX MicroPlate Reader was used to measure fluorescence intensity at two emission wavelengths—665 nm and 620 nm—and report relative fluorescence units (RFU) for both emissions, as well as a ratio of the emissions (665 nm/620 nm)*10,000. […]
For orientation: TR-FRET usually uses a lanthanide donor and a delayed reading to cut background.

For test [2], the system named is MOLP-8 human multiple myeloma cell line. As to the kind of experiment: Caspase-Glo 3/7 apoptosis induction assay in MOLP-8 cells. The following applies: read-out: MOLP8 AC50; caspase-3/7 activity, 2 hours at 37° C.; averaged over all runs on all batches. The source says: MCL-1 is a regulator of apoptosis and is highly over-expressed in tumor cells that escape cell death. The assay evaluates the cellular potency of small-molecule compounds targeting regulators of the apoptosis pathway, primarily MCL-1, Bfl-1, Bcl-2, and other proteins of the Bcl-2 family. Protein-protein inhibitors disrupting the interaction of anti-apoptotic regulators with BH3-domain proteins initiate apoptosis.
The Caspase-Glo® 3/7 Assay is a luminescent assay that measures caspase-3 and −7 activities in purified enzyme preparations or cultures of adherent or suspension cells. The assay provides a proluminescent caspase-3/7 substrate, which contains the tetrapeptide sequence DEVD. This substrate is cleaved to release aminoluciferin, a substrate of luciferase used in the production of light. Addition of the single Caspase-Glo® 3/7 Reagent in an “add-mix-measure” format results in cell lysis, followed by caspase cleavage of the substrate and generation of a “glow-type” luminescent signal. […]
Cell cultures were maintained between 0.2 and 2.0×10^6 cells/mL. […] The cells were counted and diluted as needed. […]
Compounds were delivered in assay-ready plates (Proxiplate) and stored at −20° C. […] The plates were then sealed and measured after 30 minutes.
The activity of a test compound was calculated as percent change in apoptosis induction as follows: […]

Take `COCCN(CCOC)C(=O)[C@H]1/C(F)=C/C[C@H](C)CS(=O)(NC(=O)c2cn(C)nc2OC)=NC(=O)c2ccc3c(c2)N(C[C@@H]2CCCN21)C[C@@]1(CCCc2cc(Cl)ccc21)CO3` (single isomer, unassigned) [Compound 89]: in test [1], the Ki (usually a measure of affinity in units of concentration, obtained from inhibition or displacement) was determined as 0.036 nM. Moreover, the AC50 (in general, the concentration at which the activity in the assay is half-maximal) in test [2] is 214 nM.

Turning to `COCCN(CCOC)C(=O)[C@H]1/C(F)=C/C[C@H](C)CS(=O)(NC(=O)c2cn(C)nc2OC)=NC(=O)c2ccc3c(c2)N(C[C@@H]2CCCN21)C[C@@]1(CCCc2cc(Cl)ccc21)CO3` (single isomer, unassigned) [Compound 90], the Ki in test [1] is 0.026 nM. Also, in test [2], the AC50 was 25.8 nM.
